One test addresses GSK3 (Homo sapiens, UniProt P49841). Kind of test: Protein kinase catalytic activity assay, GSK3. The class given is biochemical. To be noted: read-out: IC50 of protein kinases, GSK3.
A further test addresses DYRK1A (Homo sapiens, UniProt Q13627). Kind of test: Protein kinase catalytic activity assay, DYRK1A. The class given is biochemical. To be noted: read-out: IC50 of protein kinases, DYRK1A.

Sequences of proteins named here, by UniProt entry; tags and fusion partners are left off.
UniProt P49841, whole entry: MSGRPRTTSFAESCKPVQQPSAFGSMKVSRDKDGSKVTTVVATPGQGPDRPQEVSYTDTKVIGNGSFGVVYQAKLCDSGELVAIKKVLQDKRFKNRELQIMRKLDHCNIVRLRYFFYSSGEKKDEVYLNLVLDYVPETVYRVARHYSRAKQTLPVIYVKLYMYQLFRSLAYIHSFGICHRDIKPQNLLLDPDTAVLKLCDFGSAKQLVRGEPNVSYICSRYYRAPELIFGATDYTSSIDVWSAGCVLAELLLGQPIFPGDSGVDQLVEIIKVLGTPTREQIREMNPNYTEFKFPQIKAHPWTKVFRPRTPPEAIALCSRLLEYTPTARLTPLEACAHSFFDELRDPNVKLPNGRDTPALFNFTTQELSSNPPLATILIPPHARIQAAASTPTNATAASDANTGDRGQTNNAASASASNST

As for `CC(Nc1nc(NCc2ccccc2)c2ncn(C(C)C)c2n1)C(=O)O` (centres unmarked), the 50% inhibitory concentration (IC50) on GSK3 and on DYRK1A was above 10 µM in each case.

As a reminder, the IC50 is the point on the concentration scale where inhibition reaches its midpoint.

Source of the values: patent US20220160716A1 (SORBONNE UNIVERSITE, priority 2019, published 2022).
